Tests used:
Assay type in all cases: cell-based
[1] = molecular target: T1, Signal transducer and activator of transcription 5B (Homo sapiens) (UniProt P51692); test: Effect on STAT5b at Y699 phosphorylation level in human NCI-H1975 incubated for 12 hrs by human phosphokinase proteome profiler array relative to control
T1 sequence (whole entry): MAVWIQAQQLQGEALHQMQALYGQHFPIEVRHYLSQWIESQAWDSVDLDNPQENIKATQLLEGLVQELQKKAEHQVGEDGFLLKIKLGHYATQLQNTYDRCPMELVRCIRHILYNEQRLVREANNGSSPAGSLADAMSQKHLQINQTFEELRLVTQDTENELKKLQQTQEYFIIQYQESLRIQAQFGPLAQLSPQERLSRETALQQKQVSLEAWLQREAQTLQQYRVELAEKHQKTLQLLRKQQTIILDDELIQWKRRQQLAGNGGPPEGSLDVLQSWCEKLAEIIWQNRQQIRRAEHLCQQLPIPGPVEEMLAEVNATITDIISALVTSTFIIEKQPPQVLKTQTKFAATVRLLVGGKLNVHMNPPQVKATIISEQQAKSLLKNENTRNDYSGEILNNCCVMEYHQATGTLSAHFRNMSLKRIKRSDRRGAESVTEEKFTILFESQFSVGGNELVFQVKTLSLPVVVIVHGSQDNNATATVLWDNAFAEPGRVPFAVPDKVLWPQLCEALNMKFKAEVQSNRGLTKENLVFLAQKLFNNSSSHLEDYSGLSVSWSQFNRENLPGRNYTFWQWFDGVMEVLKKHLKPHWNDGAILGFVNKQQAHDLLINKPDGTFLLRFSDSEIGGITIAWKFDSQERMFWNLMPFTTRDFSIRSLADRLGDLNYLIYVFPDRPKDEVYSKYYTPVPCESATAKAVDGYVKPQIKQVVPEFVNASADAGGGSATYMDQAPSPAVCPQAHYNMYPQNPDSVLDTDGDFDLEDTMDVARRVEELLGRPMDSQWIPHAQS

The chains behind the UniProt entries cited, without tags or fusion partners. Where a name states a change or a piece, a line headed by the entry shows the natural chain unless it says otherwise.
UniProt P51812, whole entry, looked up: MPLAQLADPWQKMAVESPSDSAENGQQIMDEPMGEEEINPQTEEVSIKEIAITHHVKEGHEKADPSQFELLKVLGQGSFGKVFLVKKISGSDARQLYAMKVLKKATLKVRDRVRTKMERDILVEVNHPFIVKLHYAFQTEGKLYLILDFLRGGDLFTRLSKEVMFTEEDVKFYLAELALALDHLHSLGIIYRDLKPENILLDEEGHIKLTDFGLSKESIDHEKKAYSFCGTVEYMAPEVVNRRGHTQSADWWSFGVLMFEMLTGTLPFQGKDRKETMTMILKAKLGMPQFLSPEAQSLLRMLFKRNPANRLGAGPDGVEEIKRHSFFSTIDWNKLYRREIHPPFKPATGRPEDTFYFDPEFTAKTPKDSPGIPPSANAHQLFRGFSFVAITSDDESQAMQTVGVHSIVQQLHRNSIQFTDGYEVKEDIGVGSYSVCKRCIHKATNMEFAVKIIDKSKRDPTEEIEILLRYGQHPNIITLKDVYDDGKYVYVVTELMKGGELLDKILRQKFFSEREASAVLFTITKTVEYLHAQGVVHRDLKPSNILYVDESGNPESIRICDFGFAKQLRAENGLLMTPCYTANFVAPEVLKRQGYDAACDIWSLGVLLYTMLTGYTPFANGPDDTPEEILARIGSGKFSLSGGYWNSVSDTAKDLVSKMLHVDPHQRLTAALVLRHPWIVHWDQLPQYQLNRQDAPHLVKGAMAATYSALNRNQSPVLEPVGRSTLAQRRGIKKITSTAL
UniProt Q15349, whole entry, looked up: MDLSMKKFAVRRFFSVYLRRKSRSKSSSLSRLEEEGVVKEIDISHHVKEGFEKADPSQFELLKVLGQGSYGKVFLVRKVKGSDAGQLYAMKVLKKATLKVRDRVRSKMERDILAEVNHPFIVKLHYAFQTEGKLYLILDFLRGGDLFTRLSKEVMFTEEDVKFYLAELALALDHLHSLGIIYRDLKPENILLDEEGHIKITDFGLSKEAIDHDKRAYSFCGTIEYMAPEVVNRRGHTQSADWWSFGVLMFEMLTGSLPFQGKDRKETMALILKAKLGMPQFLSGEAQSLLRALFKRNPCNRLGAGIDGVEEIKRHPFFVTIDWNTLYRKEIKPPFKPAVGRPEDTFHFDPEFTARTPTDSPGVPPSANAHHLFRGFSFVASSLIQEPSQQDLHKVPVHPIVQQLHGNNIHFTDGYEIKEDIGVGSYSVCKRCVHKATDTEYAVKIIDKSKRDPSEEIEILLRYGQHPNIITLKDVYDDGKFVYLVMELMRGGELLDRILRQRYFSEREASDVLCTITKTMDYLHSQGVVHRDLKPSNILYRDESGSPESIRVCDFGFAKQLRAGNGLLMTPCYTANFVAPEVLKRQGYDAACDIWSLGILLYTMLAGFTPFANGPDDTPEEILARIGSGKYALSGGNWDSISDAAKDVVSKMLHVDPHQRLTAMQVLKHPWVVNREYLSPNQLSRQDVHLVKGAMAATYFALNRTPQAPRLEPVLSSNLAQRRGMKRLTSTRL
UniProt P19174: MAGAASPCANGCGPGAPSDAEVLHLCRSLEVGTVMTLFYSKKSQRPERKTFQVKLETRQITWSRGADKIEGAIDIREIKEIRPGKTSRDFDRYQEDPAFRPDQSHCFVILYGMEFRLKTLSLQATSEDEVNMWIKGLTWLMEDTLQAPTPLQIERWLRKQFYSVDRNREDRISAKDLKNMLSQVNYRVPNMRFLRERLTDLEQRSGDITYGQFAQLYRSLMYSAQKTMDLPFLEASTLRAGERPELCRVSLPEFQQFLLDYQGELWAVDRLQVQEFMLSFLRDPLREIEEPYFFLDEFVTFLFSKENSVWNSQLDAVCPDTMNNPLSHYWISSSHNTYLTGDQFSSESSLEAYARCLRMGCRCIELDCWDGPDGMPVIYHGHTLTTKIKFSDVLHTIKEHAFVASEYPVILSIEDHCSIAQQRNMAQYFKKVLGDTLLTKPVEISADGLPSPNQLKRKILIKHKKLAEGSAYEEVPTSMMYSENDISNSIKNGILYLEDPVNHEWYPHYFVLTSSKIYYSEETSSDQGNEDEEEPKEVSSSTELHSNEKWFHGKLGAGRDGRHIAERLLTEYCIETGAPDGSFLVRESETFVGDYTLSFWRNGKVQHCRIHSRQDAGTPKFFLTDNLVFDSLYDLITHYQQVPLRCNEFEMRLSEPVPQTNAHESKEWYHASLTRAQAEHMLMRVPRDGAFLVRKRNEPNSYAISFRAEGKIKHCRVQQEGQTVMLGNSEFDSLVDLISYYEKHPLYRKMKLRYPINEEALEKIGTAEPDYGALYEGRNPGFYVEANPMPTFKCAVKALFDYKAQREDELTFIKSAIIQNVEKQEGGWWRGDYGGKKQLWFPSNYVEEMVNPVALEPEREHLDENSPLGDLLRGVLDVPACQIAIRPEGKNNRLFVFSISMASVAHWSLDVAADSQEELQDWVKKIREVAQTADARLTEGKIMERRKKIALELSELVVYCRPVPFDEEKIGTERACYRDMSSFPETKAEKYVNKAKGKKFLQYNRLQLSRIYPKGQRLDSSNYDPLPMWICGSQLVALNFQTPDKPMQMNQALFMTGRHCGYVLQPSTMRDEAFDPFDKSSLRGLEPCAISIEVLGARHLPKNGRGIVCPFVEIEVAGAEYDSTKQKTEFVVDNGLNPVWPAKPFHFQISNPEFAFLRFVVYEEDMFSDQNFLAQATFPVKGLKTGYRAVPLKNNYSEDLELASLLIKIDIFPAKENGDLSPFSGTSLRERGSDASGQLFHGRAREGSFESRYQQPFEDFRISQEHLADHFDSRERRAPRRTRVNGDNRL
UniProt P31751: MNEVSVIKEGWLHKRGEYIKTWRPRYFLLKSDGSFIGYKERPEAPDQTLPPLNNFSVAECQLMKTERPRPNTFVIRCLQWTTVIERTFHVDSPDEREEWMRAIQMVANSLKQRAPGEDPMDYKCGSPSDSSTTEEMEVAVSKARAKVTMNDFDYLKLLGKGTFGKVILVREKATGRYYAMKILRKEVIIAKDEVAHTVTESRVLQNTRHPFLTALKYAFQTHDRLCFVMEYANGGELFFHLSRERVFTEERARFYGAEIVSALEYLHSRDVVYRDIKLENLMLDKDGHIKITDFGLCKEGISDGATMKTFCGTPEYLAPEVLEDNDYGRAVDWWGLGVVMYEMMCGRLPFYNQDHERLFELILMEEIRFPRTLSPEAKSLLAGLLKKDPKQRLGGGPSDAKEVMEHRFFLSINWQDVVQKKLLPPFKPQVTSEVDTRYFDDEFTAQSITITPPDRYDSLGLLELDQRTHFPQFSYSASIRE
UniProt Q9Y243: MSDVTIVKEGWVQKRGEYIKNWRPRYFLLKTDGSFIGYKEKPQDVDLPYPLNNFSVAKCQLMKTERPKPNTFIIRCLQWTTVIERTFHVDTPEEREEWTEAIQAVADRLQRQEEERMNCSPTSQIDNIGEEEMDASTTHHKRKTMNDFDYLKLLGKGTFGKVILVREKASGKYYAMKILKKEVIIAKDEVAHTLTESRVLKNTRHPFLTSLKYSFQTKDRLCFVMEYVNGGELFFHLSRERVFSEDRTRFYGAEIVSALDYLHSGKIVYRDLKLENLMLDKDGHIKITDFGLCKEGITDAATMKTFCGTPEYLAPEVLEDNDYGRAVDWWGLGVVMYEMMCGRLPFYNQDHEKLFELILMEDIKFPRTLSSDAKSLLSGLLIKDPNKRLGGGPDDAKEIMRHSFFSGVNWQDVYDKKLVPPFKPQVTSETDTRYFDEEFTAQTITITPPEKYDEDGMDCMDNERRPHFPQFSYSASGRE
UniProt P07948: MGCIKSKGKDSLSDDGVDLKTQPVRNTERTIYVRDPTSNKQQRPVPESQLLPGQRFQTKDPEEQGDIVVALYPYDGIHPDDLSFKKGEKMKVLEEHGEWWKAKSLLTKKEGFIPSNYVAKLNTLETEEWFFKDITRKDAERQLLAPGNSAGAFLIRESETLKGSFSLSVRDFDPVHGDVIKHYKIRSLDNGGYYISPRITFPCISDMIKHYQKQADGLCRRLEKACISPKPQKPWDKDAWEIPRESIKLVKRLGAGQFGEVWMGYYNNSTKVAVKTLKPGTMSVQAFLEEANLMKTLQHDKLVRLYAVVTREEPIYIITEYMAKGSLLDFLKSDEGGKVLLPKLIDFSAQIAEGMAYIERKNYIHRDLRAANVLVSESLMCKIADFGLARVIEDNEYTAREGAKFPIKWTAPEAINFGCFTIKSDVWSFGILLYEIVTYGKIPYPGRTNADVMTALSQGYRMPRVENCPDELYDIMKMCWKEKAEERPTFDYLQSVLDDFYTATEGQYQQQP
UniProt P07947, whole entry, looked up: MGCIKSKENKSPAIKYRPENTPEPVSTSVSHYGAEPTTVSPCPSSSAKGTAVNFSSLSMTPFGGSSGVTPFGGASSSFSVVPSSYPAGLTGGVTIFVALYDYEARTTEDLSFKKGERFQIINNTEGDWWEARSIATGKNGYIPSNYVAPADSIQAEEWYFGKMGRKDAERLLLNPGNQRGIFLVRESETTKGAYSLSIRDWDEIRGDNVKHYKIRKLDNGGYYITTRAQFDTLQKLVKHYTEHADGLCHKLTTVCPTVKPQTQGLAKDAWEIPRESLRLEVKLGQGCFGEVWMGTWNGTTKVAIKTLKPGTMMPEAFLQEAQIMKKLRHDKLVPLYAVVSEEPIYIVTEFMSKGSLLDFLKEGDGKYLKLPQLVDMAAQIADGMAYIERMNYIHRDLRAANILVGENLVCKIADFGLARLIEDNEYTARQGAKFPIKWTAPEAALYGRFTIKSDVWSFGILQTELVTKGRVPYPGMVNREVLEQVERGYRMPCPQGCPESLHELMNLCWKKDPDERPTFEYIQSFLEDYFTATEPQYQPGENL
UniProt P23443: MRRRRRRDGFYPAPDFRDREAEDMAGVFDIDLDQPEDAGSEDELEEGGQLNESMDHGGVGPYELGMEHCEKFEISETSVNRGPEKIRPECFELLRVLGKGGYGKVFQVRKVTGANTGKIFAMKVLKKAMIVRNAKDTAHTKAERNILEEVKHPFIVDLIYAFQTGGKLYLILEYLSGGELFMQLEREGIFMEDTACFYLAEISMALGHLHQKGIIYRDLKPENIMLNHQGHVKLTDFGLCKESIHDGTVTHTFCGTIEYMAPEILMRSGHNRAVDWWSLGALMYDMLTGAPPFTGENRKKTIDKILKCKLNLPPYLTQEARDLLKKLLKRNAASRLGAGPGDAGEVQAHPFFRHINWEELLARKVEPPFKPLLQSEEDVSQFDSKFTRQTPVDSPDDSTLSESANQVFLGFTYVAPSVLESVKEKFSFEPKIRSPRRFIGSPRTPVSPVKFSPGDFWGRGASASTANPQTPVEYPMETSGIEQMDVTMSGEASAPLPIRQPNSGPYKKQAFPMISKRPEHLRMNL
UniProt Q14289, whole entry, looked up: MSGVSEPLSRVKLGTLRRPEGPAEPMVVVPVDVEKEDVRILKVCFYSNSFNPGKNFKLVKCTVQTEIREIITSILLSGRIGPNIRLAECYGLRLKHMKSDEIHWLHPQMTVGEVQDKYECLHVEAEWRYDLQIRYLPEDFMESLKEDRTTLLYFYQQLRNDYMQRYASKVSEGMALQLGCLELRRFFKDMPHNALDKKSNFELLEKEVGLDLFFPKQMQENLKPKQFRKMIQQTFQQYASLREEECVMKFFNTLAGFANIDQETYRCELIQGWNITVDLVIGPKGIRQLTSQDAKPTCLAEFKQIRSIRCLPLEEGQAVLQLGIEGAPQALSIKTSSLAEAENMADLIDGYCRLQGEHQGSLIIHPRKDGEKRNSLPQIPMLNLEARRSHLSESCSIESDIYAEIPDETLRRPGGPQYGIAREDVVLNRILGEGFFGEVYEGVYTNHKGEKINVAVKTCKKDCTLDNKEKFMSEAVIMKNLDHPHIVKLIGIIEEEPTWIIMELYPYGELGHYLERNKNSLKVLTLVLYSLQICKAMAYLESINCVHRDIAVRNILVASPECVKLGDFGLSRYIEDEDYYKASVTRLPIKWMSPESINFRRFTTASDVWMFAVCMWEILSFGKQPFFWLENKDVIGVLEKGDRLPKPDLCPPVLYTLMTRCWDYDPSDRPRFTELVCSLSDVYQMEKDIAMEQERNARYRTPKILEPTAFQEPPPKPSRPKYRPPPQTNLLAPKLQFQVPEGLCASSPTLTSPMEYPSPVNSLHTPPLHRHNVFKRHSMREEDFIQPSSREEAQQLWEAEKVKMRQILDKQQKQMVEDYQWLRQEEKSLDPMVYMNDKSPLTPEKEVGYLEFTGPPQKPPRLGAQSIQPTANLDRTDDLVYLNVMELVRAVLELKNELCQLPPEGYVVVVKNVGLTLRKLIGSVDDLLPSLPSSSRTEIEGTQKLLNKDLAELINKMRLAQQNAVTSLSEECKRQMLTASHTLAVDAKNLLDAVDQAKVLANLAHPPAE

[2] = molecular target: Serine/threonine-protein kinase Chk2 (Homo sapiens) (UniProt O96017); test: Effect on CHK2 at T68 phosphorylation level in human NCI-H1975 incubated for 12 hrs by human phosphokinase proteome profiler array relative to control
[3] = molecular target: Cellular tumor antigen p53 (Homo sapiens) (UniProt P04637); test: Effect on p53 at S392 phosphorylation level in human NCI-H1975 incubated for 12 hrs by human phosphokinase proteome profiler array relative to beta-catenin
[4] = molecular target: Proto-oncogene tyrosine-protein kinase Src (Homo sapiens) (UniProt P12931); test: Effect on SRC at Y419 phosphorylation level in human NCI-H1975 incubated for 12 hrs by human phosphokinase proteome profiler array relative to control
[5] = molecular target: RPS6KA1/RPS6KA2/RPS6KA3 (Homo sapiens) (UniProt P51812+Q15349+Q15418); test: Effect on RSK1/2/3 at S380/S386/S377 phosphorylation level in human NCI-H1975 incubated for 12 hrs by human phosphokinase proteome profiler array relative to beta-catenin
[6] = molecular target: 1-phosphatidylinositol 4,5-bisphosphate phosphodiesterase gamma-1 (Homo sapiens) (UniProt P19174); test: Effect on PLCgamma1 at Y783 phosphorylation level in human NCI-H1975 incubated for 12 hrs by human phosphokinase proteome profiler array relative to beta-catenin
[7] = molecular target: Signal transducer and activator of transcription 3 (Homo sapiens) (UniProt P40763); test: Effect on STAT3 at Y705 phosphorylation level in human NCI-H1975 incubated for 12 hrs by human phosphokinase proteome profiler array relative to control
[8] = molecular target: Cellular tumor antigen p53 (Homo sapiens) (UniProt P04637); test: Effect on p53 at S15 phosphorylation level in human NCI-H1975 incubated for 12 hrs by human phosphokinase proteome profiler array relative to control
[9] = molecular target: Tyrosine-protein kinase Fgr (Homo sapiens) (UniProt P09769); test: Effect on FGR at Y412 phosphorylation level in human NCI-H1975 incubated for 12 hrs by human phosphokinase proteome profiler array relative to beta-catenin
[10] = molecular target: Serine/threonine-protein kinase AKT (Homo sapiens) (UniProt P31751+Q9Y243+P31749); test: Effect on Akt1/2/3 at S473 phosphorylation level in human NCI-H1975 incubated for 12 hrs by human phosphokinase proteome profiler array relative to beta-catenin
[11] = molecular target: Tyrosine-protein kinase Lyn (Homo sapiens) (UniProt P07948); test: Effect on LYN at Y397 phosphorylation level in human NCI-H1975 incubated for 12 hrs by human phosphokinase proteome profiler array relative to control
[12] = molecular target: Signal transducer and activator of transcription 3 (Homo sapiens) (UniProt P40763); test: Effect on STAT3 at Y705 phosphorylation level in human NCI-H1975 incubated for 12 hrs by human phosphokinase proteome profiler array relative to beta-catenin
[13] = molecular target: T1, Signal transducer and activator of transcription 5B (Homo sapiens); test: Effect on STAT5b at Y699 phosphorylation level in human NCI-H1975 incubated for 12 hrs by human phosphokinase proteome profiler array relative to beta-catenin
[14] = molecular target: Tyrosine-protein kinase Yes (Homo sapiens) (UniProt P07947); test: Effect on YES at Y426 phosphorylation level in human NCI-H1975 incubated for 12 hrs by human phosphokinase proteome profiler array relative to beta-catenin
[15] = molecular target: Transcription factor Jun (Homo sapiens) (UniProt P05412); test: Effect on c-Jun phosphorylation at S63 residue in human NCI-H1975 cells incubated for 12 hrs by human phosphokinase proteome profiler array relative to control
[16] = molecular target: Ribosomal protein S6 kinase beta-1 (Homo sapiens) (UniProt P23443); test: Effect on p70S6 Kinase at T389 phosphorylation level in human NCI-H1975 incubated for 12 hrs by human phosphokinase proteome profiler array relative to control
[17] = molecular target: Protein-tyrosine kinase 2-beta (Homo sapiens) (UniProt Q14289); test: Effect on PYK2 at Y402 phosphorylation level in human NCI-H1975 incubated for 12 hrs by human phosphokinase proteome profiler array relative to beta-catenin
[18] = molecular target: Ribosomal protein S6 kinase beta-1 (Homo sapiens) (UniProt P23443); test: Effect on p70S6 Kinase at T421/S424 phosphorylation level in human NCI-H1975 incubated for 12 hrs by human phosphokinase proteome profiler array relative to control
[19] = molecular target: Ribosomal protein S6 kinase beta-1 (Homo sapiens) (UniProt P23443); test: Effect on p70S6 Kinase at T421/S424 phosphorylation level in human NCI-H1975 incubated for 12 hrs by human phosphokinase proteome profiler array relative to beta-catenin
[20] = molecular target: Serine/threonine-protein kinase mTOR (Homo sapiens) (UniProt P42345); test: Effect on mTOR at S2448 phosphorylation level in human NCI-H1975 incubated for 12 hrs by human phosphokinase proteome profiler array relative to control
[21] = molecular target: Tyrosine-protein kinase Fyn (Homo sapiens) (UniProt P06241); test: Effect on FYN at Y420 phosphorylation level in human NCI-H1975 incubated for 12 hrs by human phosphokinase proteome profiler array relative to beta-catenin
[22] = molecular target: c-Jun N-terminal kinase, JNK (Homo sapiens) (UniProt P45983+P53779+P45984); test: Effect on JNK1/2/3 phosphorylation at T183/Y185,T221/Y223 residue in human NCI-H1975 incubated for 12 hrs by human phosphokinase proteome profiler array relative to control

| SMILES | fold change (FC) [1] | fold change (FC) [2] | fold change (FC) [3] | fold change (FC) [4] | fold change (FC) [5] | fold change (FC) [6] | fold change (FC) [7] | fold change (FC) [8] | fold change (FC) [9] | fold change (FC) [10] | fold change (FC) [11] | fold change (FC) [12] | fold change (FC) [13] | fold change (FC) [14] | fold change (FC) [15] | fold change (FC) [16] | fold change (FC) [17] | fold change (FC) [18] | fold change (FC) [19] | fold change (FC) [20] | further results |
| --- | --- | --- | --- | --- | --- | --- | --- | --- | --- | --- | --- | --- | --- | --- | --- | --- | --- | --- | --- | --- | --- |
| CCOc1ccc(-c2nc(/C(N)=N/O)c3[nH]c(=O)n(-c4ccccc4OC)c3n2)cc1 | 0.87 | 0.73 | 1.36 | 0.64 | 1.81 | 1.83 | 1.47 | 1.36 | 1.18 | 0.79 | 0.72 | 1.73 | 1.02 | 0.83 | 1.49 | 1.34 | 1.67 | 1.45 | 1.57 | 0.86 | fold change (FC) [21]: 0.88; fold change (FC) [22]: 0.74 |
| CCOc1ccc(-c2nc(C(=O)NO)c3[nH]c(=O)n(-c4ccccc4OC)c3n2)cc1 | 0.78 | 0.87 | 1.16 | 0.61 | 1.17 | 1.62 | 1.14 | 0.83 | 0.36 | 0.61 | 0.65 | 1.28 | 0.88 | 0.84 | 1.17 | 0.89 | 1.27 | 0.92 | 1 | 0.73 | fold change (FC) [21]: 0.9; fold change (FC) [22]: 0.82 |

Source: ChEMBL document CHEMBL4359863, “Structure-guided development of purine amide, hydroxamate, and amidoxime for the inhibition of non-small cell lung cancer” (Eur J Med Chem, 2019)
